From PMC12064818, “A general assay platform to study protein pharmacology using ligand-dependent structural dynamics” (Nature Communications, 2025) come the findings set out here.

Assay [1] deals with PKA-N-HiBiT (Homo sapiens, UniProt P17612).
For assay [2], the target named is T1, ABL1-N-HiBiT kinase domain (Homo sapiens, UniProt P00519). Briefly: ABL1 peptide phosphorylation, Kinase-Glo Plus (KGP) assay, ABL1-N-HiBiT. A general note: Kinase-Glo measures the ATP left after a reaction by luminescence.
For assay [3], the target named is T1, ABL1-N-HiBiT kinase domain.

`CCN1CCN(Cc2ccc(NC(=O)Nc3ccc(Oc4cc(NC)ncn4)cc3)cc2C(F)(F)F)CC1` [AST-487]: the “SDR Ave Max Response” value in assay [1] came out at 24.95.
The term IC50 denotes the concentration that inhibits the measured activity by half. With `Cc1ccc(NC(=O)c2ccc(CN3CCN(C)CC3)cc2)cc1Nc1nc(-c2cccnc2)cs1` [Masitinib], in assay [2], the “ABL1 KGP pIC50” value is listed as 4.79. Also, the IC50 in assay [2] (read-out: ABL1 KGP Ave IC50) was found to be 17.5 µM. In assay [3], the “ABL1 SDR pSDR50” value is reported as 6.21 and the “SDR Ave Max Response” value stood at 56.54. Further, the EC50 in assay [3] (read-out: SDR Ave SDR50) came to 0.66 µM.
